Some test systems named below: SK-MEL-2 melanoma; EKVX NSCLC; SN12C renal; UO-31 renal; TK-10 renal; ACHN renal; CAKI-1 renal; A498 renal; HL-60(TB) leukemia; CCRF-CEM leukemia; MOLT-4 leukemia; SR leukemia; RPMI-8226 leukemia; OVCAR-8 ovarian; OVCAR-5 ovarian; OVCAR-4 ovarian; SK-OV-3 ovarian; IGROV1 ovarian; OVCAR-3 ovarian; HS 578T breast.
What all share (assay): NCI-60 one-dose screen, 48 h (100 = growth as untreated, 0 = no growth, -100 = all killed)
Common to all, as to settings: 10 µM unless noted

The structures appear in SMILES notation. Where “and” joins values, the source holds several entries; their conditions need not be identical. Equal values may be shown once. The entries are a selection whose mix differs from that of the whole data set.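 The test compound was applied at a single concentration to cells in 96-well plates for 48 hours, and percent growth was recorded.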 Calls of active or inactive are those of the source. Rule for the calls: active = growth percent below 10; inactive = the rest.

Take `Cc1ccc(Sc2ccc([N+](=O)[O-])cc2[N+](=O)[O-])c([N+](=O)[O-])c1`: the growth is active: -1.94% in the assay on SK-MEL-2 melanoma; inactive: 62.3% in the assay on EKVX NSCLC; inactive: 24% with SN12C renal; inactive: 36.4% in the assay on UO-31 renal; inactive: 47.1% in the assay on TK-10 renal; inactive: 28.3% in the assay with ACHN renal. Moreover, the growth was active: 6.84% with CAKI-1 renal; inactive: 81.3% in the assay on A498 renal; active: -24.7% in the assay on HL-60(TB) leukemia; active: 2.93% in the assay with CCRF-CEM leukemia; inactive: 11.4% in the assay with MOLT-4 leukemia; active: 7.73% in the assay on SR leukemia. Besides, the growth in the assay with RPMI-8226 leukemia was active: 4.19%; in the assay with OVCAR-8 ovarian it was inactive: 47.4%; with OVCAR-5 ovarian it was inactive: 17.6%; with OVCAR-4 ovarian, inactive: 42.9%; in the assay on SK-OV-3 ovarian, active: 8.15%; with IGROV1 ovarian, inactive: 46.6%. Besides, the values for the growth in the assay with OVCAR-3 ovarian and in the assay with HS 578T breast were active: 6.72% and inactive: 22.4%, respectively.

For `O=[As](O)(c1cccs1)c1cccs1`, the growth in the assay on SK-MEL-2 melanoma was inactive: 104%; in the assay on EKVX NSCLC, inactive: 101%; in the assay with SN12C renal, inactive: 99.3%; with UO-31 renal it was inactive: 23%; in the assay on TK-10 renal, inactive: 99.6%; in the assay with ACHN renal it was inactive: 110%. Further, the growth in the assay on CAKI-1 renal was inactive: 99.8%; in the assay with A498 renal it was inactive: 96.6%; in the assay on HL-60(TB) leukemia it was inactive: 98.1%; in the assay on CCRF-CEM leukemia, inactive: 89.5%; in the assay on MOLT-4 leukemia, inactive: 108%; in the assay with SR leukemia, inactive: 104%. For the same compound, the growth in the assay on RPMI-8226 leukemia was inactive: 83.2%; in the assay on OVCAR-8 ovarian, inactive: 107%; in the assay on OVCAR-5 ovarian, inactive: 99%; with OVCAR-4 ovarian, inactive: 96.3%; in the assay on SK-OV-3 ovarian, inactive: 100%; with IGROV1 ovarian it was inactive: 58%. Also, the growth in the assay on OVCAR-3 ovarian is inactive: 113%; with HS 578T breast, inactive: 96.5%.

Take `CCOC(=O)N1CCN(CCCl)CC1`: the growth in the assay with SK-MEL-2 melanoma was inactive: 102%; in the assay on EKVX NSCLC it was inactive: 91.9%; in the assay on SN12C renal, inactive: 107%; in the assay with UO-31 renal, inactive: 91%; in the assay with TK-10 renal, inactive: 100%; in the assay with ACHN renal it was inactive: 106%. Besides, the growth in the assay with CAKI-1 renal is inactive: 91.3%; in the assay on A498 renal, inactive: 94.5%; in the assay on HL-60(TB) leukemia, inactive: 119%; in the assay with CCRF-CEM leukemia it was inactive: 118%; in the assay on MOLT-4 leukemia it was inactive: 114%; in the assay with SR leukemia, inactive: 111%. Moreover, the growth in the assay with RPMI-8226 leukemia was inactive: 107%; in the assay on OVCAR-8 ovarian, inactive: 107%; with OVCAR-5 ovarian, inactive: 103%; in the assay with OVCAR-4 ovarian, inactive: 96.5%; in the assay with SK-OV-3 ovarian, inactive: 98.3%; in the assay with IGROV1 ovarian, inactive: 105%. Besides, the figures for the growth in the assay with OVCAR-3 ovarian and in the assay with HS 578T breast were inactive: 104% and inactive: 98.8%, respectively.

Regarding `CC1CN1P(=O)(Nc1ncccn1)N1CC1C` (stereo not given), the growth was inactive: 114% in the assay on SK-MEL-2 melanoma; inactive: 109% in the assay on EKVX NSCLC; inactive: 110% in the assay on SN12C renal; inactive: 87.7% in the assay on UO-31 renal; inactive: 108% in the assay on TK-10 renal; inactive: 95.9% with ACHN renal. The growth in the assay with CAKI-1 renal was inactive: 107%; with A498 renal, inactive: 120%; with HL-60(TB) leukemia, inactive: 83%; in the assay with CCRF-CEM leukemia, inactive: 107%; with MOLT-4 leukemia it was inactive: 98%; in the assay on SR leukemia, inactive: 90%. In addition, the growth was inactive: 114% in the assay on RPMI-8226 leukemia; inactive: 107% in the assay on OVCAR-8 ovarian; inactive: 95.1% in the assay with OVCAR-5 ovarian; inactive: 105% with OVCAR-4 ovarian; inactive: 106% in the assay with SK-OV-3 ovarian; inactive: 109% in the assay with IGROV1 ovarian. Further, the growth in the assay with OVCAR-3 ovarian is inactive: 102%; in the assay on HS 578T breast it was inactive: 128%.

For the compound `O=[N+]([O-])c1ccc(-c2cc([N+](=O)[O-])c(O)c([N+](=O)[O-])c2)cc1`, the growth with SK-MEL-2 melanoma was inactive: 103% and inactive: 96.2%; with EKVX NSCLC, inactive: 92.5% and inactive: 94.2%; in the assay on SN12C renal, inactive: 97% and inactive: 103%; in the assay on UO-31 renal, inactive: 82.5% and inactive: 84.2%; in the assay with TK-10 renal, inactive: 104% and inactive: 106%; in the assay with ACHN renal it was inactive: 93.7% and inactive: 100%. Also, the growth in the assay with CAKI-1 renal is inactive: 98% and inactive: 95%; with A498 renal, inactive: 101% and inactive: 96.1%; in the assay on HL-60(TB) leukemia, inactive: 99.9%; in the assay on CCRF-CEM leukemia it was inactive: 99.8%; in the assay on MOLT-4 leukemia, inactive: 99.6% and inactive: 90.9%; with SR leukemia, inactive: 98.4% and inactive: 81.5%. Besides, the growth is inactive: 107% and inactive: 96% with RPMI-8226 leukemia; inactive: 107% and inactive: 114% in the assay with OVCAR-8 ovarian; inactive: 96.8% and inactive: 107% in the assay on OVCAR-5 ovarian; inactive: 112% and inactive: 100% in the assay with OVCAR-4 ovarian; inactive: 100% and inactive: 104% in the assay with SK-OV-3 ovarian; inactive: 107% and inactive: 126% in the assay with IGROV1 ovarian. The growth in the assay on OVCAR-3 ovarian is inactive: 115% and inactive: 110%; with HS 578T breast, inactive: 106%.

Regarding `CC1CCNP(=O)(N(CCCl)CCCl)O1` (stereo not given), the growth in the assay on SK-MEL-2 melanoma was inactive: 122%; in the assay on EKVX NSCLC it was inactive: 94.6%; in the assay on SN12C renal it was inactive: 113%; in the assay with UO-31 renal, inactive: 83.5%; in the assay with TK-10 renal, inactive: 107%; with ACHN renal, inactive: 105%. Moreover, the growth was inactive: 90.3% in the assay on CAKI-1 renal; inactive: 95.9% in the assay with A498 renal; inactive: 121% in the assay on HL-60(TB) leukemia; inactive: 84.4% in the assay on CCRF-CEM leukemia; inactive: 90.5% in the assay with MOLT-4 leukemia; inactive: 95.2% in the assay with SR leukemia. Besides, the growth is inactive: 93% with RPMI-8226 leukemia; inactive: 102% in the assay with OVCAR-8 ovarian; inactive: 106% in the assay with OVCAR-5 ovarian; inactive: 112% in the assay with OVCAR-4 ovarian; inactive: 104% in the assay with SK-OV-3 ovarian; inactive: 103% with IGROV1 ovarian. Moreover, the growth was inactive: 97.3% in the assay with OVCAR-3 ovarian and inactive: 97% in the assay on HS 578T breast.

Regarding `CCCOP(=S)(Nc1nc(N)cc(=O)[nH]1)OCCC`, the growth in the assay on SK-MEL-2 melanoma was inactive: 99.4%; in the assay with EKVX NSCLC it was inactive: 98.9%; in the assay on SN12C renal, inactive: 95.4%; in the assay with UO-31 renal, inactive: 81.9%; in the assay on TK-10 renal, inactive: 97.1%; in the assay on ACHN renal, inactive: 98.1%. For the same compound, the growth with CAKI-1 renal was inactive: 108%; in the assay with A498 renal, inactive: 96.1%; in the assay with HL-60(TB) leukemia, inactive: 92.3%; in the assay with CCRF-CEM leukemia, inactive: 93.1%; in the assay on MOLT-4 leukemia it was inactive: 94.6%; in the assay on SR leukemia it was inactive: 80.9%. Further, the growth with RPMI-8226 leukemia is inactive: 93.4%; in the assay with OVCAR-8 ovarian, inactive: 101%; in the assay with OVCAR-5 ovarian it was inactive: 93.8%; in the assay on OVCAR-4 ovarian, inactive: 94.4%; in the assay with SK-OV-3 ovarian, inactive: 97.9%; in the assay with IGROV1 ovarian, inactive: 70%. For the same compound, the growth with OVCAR-3 ovarian is inactive: 103%; with HS 578T breast, inactive: 89.4%.

The values are drawn from PubChem BioAssay (NCI).
